Test results from ChEMBL document CHEMBL1201862, “PubChem BioAssay data set” (2004).
The other results are listed elsewhere or left out. Cut-off read from the data, not from the text of the source: active = GI50 up to about 1.1 µM and inactive = higher. Only a part of the results of these assays is listed, not drawn at random.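 How tested: cells in 96-well plates exposed to compound for 48 hours at five concentrations. GI50 = concentration required for 50% inhibition of growth.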

test system: NCI-H522; test: NCI tumour cell line growth inhibition, 48 h

Row | Structure (SMILES) | GI50
1 | O[C@@H]1CCN2CCC[C@H]12 | inactive: 51.4 µM
2 | O[C@H]1[C@@H](O)CC2CCN3Cc4cc5c(cc4[C@H]1C23)OCO5 (stereo partly drawn) | inactive: > 100 µM
3 | Cc1ccc([N+](=O)[O-])c(C[N+](C)(CCCl)CCCl)c1 | inactive: 20.2 µM
